The results in this text go back to PMC8895762 (BMC Complementary Medicine and Therapies, 2022).

The data set has as its system RAW 264.7 macrophages. Nature of the data set: CCK-8 cell viability assay. The following applies: 40 μM, 24 h, mean ± SD, n = 3. The data set is classed as cell-based, Murine. The procedure: Murine RAW 264.7 macrophages were purchased from the American Tissue Culture Collection (Manassas, USA). These cells were incubated in DMEM supplemented with 10% FBS, 100 U/mL penicillin and 100 U/mL streptomycin in humidified 5% carbon dioxide (CO2) at 37 °C [16, 17].
The effects of 19 constituents on the viability of RAW 264.7 macrophages were assessed by CCK-8 assay. Prior to treatment, RAW 264.7 macrophages (5 × 10^3 cells/well) were seeded into 96-well plates and incubated for 24 h. All cultured cells were treated with or without 19 compounds at a concentration of 40 μM at 37 °C for 24 h. After incubation, 10 μL of CCK-8 solution was added to each well and incubated at 37 °C. After 2 h, the absorbance of each well was measured at 450 nm in a microplate reader. Cell viability was calculated using the following formular:
Cell viability (%) = Asample/Acontrol × 100, where Asample and Acontrol are the absorbance of cells treated with the compound and untreated cells, respectively. Moreover, the latter is expressed as 100% cell viability.

Take kaempferol-3-O-rutinoside [Compound 11]: the “Cell viability (%)” value came out at 90.87 ± 5.45%.
